# Ab-95 light chain CDR variants: yeast mating affinities

From the AlphaSeq antibody data of Engelhart et al. 2022 (doi:10.1038/s41597-022-01779-4), copy in the FLAb collection.

Antigen: PDVDLGDISGINAS, a 14-residue peptide of the SARS-CoV-2 spike HR2 region.

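The parent was found by panning a naive human phage display library on the peptide. In library AAYL52, one, two or three CDR residues were substituted; doubles and triples were drawn at random. AlphaSeq pools MATa yeast showing the antibodies with MATalpha yeast showing the peptide. After mating in shaken culture at 30 °C for 16 h, diploids were selected and their barcode pairs sequenced. A regression on co-assayed BCL2-family reference pairs converts the normalised counts of each replicate to an apparent Kd. Each pool was mated in three replicate cultures.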

Each scFv is VH, a (GGGGS)3 linker, VL, as in the parent Ab-95, and differs from it in the CDRs of the light chain only.
VH: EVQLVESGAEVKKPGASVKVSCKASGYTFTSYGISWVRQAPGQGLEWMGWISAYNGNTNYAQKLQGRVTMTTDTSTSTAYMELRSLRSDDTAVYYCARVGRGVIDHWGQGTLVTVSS
VL: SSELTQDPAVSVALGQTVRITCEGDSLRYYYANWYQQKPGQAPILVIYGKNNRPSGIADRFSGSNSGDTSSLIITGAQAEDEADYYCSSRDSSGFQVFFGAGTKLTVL

Substitutions are numbered in sequence along the VL above, starting at 1 (not Kabat). Values are log10 of the apparent Kd in nM; lower means stronger binding. Averages over replicates are reported, and they cover detected replicates only. An entry "no signal" has no value in the source: the pair was not observed among the diploids in any replicate. This suggests poor binding but is not conclusive. In this assay the parent's reference entry averaged 2.31; its copy inside this library read 2.25. Three control strains display no target. For library AAYL52, 28% of the pairings with them gave a signal, with a median of 3.91 and one signal in twenty below 2.90, so weak values seen in few replicates may be background. For each scFv, signals with the empty controls are counted beside the result.

changes	mean, log10 nM	detected	empty controls
D25Q L27N G94E	no signal	0/3	0/9
K50R P54I F98C	4.12	3/3	3/9
R28N G49W K50F	3.59	2/3	4/9
G49W S89C Q96E	no signal	0/3	0/9
S26F Y29F R90I	3.72	3/3	4/9
Y29D S88V F98M	3.32	1/3	3/9
N33T G49V S93M	4.83	2/3	5/9
G24L Y29T V97S	2.52	1/3	1/9
Y30E D91H	1.75	3/3	2/9
Y29K S55T F98G	3.23	3/3	3/9
Y31R R53P S89G	3.50	1/3	3/9
R28C N33E F95R	3.16	3/3	6/9
G49L N52E F95I	3.96	1/3	4/9
R28D A32Y S93T	3.56	2/3	1/9
P54E D91A V97T	4.76	2/3	1/9
R28M P54E V97G	4.81	2/3	4/9
R28L A32F N33K	2.55	3/3	2/9
D25K R28G F95H	no signal	0/3	0/9
L27T R53T G94I	4.20	2/3	2/9
R90I S92T S93P	5.20	2/3	3/9
Y31H R53A	2.13	3/3	3/9
E23C A32G F95C	4.35	1/3	5/9
R28G S55A	2.13	3/3	2/9
S26H N51G	2.81	3/3	4/9
Y31R S55L S93W	2.88	3/3	3/9
L27T P54I Q96L	3.82	2/3	3/9
S55C S93A F98T	2.82	3/3	6/9
S55L S92A	2.62	3/3	4/9
E23Q Y29V N52C	4.38	1/3	2/9
Y31M A32K F95C	4.40	2/3	1/9
G24V S89K F98W	3.19	3/3	1/9
E23R R28A R53V	1.75	3/3	4/9
Y29T Y31I F95M	2.82	3/3	2/9
K50T F95V F98K	4.05	1/3	1/9
A32N P54V V97A	3.25	1/3	4/9
G24Q K50L Q96M	3.97	3/3	3/9
E23G D25K N33I	3.93	1/3	3/9
D25H S26M Y31E	2.93	3/3	3/9
P54G R90N Q96R	3.67	3/3	3/9
S26F Y30H F98V	2.33	3/3	0/9
S26R N52G V97Y	3.97	1/3	2/9
G49C Q96K F98A	3.79	1/3	6/9
E23F V97H F98W	2.88	3/3	1/9
Y30C N51C D91V	3.27	1/3	4/9
E23N G49Y G94M	4.35	1/3	0/9
A32H D91A S93C	3.61	1/3	3/9
Y31S P54E S88D	no signal	0/3	2/9
Y30V S55E F98N	2.54	3/3	1/9
E23H N52M S88C	2.20	3/3	2/9
Y31W D91A G94N	3.16	2/3	2/9
Y31E R90Q S92P	1.93	3/3	4/9
Y31I N52I	3.76	2/3	1/9
D91I Q96Y	no signal	0/3	1/9
N52F S88I V97L	3.83	2/3	3/9
R28L Q96S	2.38	3/3	5/9
F95H V97Y	3.73	2/3	3/9
D25H S88H R90V	3.77	3/3	1/9
N51Y S55H S89F	3.39	2/3	2/9
A32D D91N F95V	no signal	0/3	0/9
S88V S89I S92I	3.75	3/3	4/9
R28I Y30G S89L	1.01	3/3	4/9
N33M K50M S89V	5.57	1/3	2/9
Y30A R53P S93F	no signal	0/3	1/9
S26G S55R D91A	3.73	3/3	4/9
A32D K50T S93A	4.54	1/3	4/9
E23I S55K V97E	2.49	3/3	4/9
G24H R53E V97M	no signal	0/3	3/9
S26F L27F S93L	3.29	1/3	1/9
S26E Y29G Q96Y	2.26	3/3	4/9
E23A G24Q S89E	4.09	2/3	2/9
Y29I K50S N51T	3.69	2/3	1/9
R53H V97A	2.83	3/3	2/9
S89V S92F S93P	3.76	1/3	2/9